{"source": "patent US5602229A", "about": "“Pentapeptide antibiotics” (Gruppo Lepetit S.p.A., priority 1989, dated 1997)", "assay": "Acid-base titration (pKa)", "assay_type": "physicochemical", "conditions": "methyl cellosolve/H2O 4/1, excess 0.01M HCl, titrated with 0.01N NaOH", "method": "Acid-base titrations were carried out under the following conditions: the sample was dissolved in a mixture methyl cellosolve/H2 O 4/1, then an excess of 0.01M HCl in the same solvent mixture was added and the resulting solution was titrated with 0.01N NaOH."}
{"substance": "reductive cleavage product of vancomycin [Example 6]", "values": [{"measurement": "pKa2", "result": 8.3}, {"measurement": "pKa3", "result": 9.4}]}
